{"source": "patent US20190134148A1", "about": "“COMBINATION THERAPY” (BIG DNA LTD, priority 2016, published 2019)", "key": {"[1]": {"test_system": "NCI H-929 human multiple myeloma cells", "assay": "NCI-H929 sub-cutaneous xenograft mouse tumor model, 'high' bortezomib dose (Example 7)", "type": "in vivo, SCID mouse", "settings": "sum of PR+CR, N = 10, bortezomib 1 mg/kg IV biweekly, cilengitide 45 mg/kg IP QD", "experimental": "A scoping study was conducted to compare the efficacy of bortezomib with a bortezomib/cilengitide combination regime in vivo in a sub cutaneous SCID mouse xenograft model using NCI H-929 human multiple myeloma cells. The dose of bortezomib tested was 1 mg/kg. H929 cells were implanted and allowed to grow until mean tumour volumes of 101-103 mm^3 were reached on Day 1, whereupon treatment began. This was then continued until Day 21.\nPartial response (PR) is defined as the first measurement of the tumor volume being 50% or less of its Day 1 volume for three consecutive measurements during the course of the study, and equal to or greater than 13.5 mm^3 for one or more of these three measurements. In a complete response (CR), the tumor volume was less than 13.5 mm^3 for three consecutive measurements during the course of the study. Total response rate (RR) is the sum of PR+CR. Treatment began on day 1 and was stopped on Day 21. Bortezomib was given as Velcade (1 mg/kg IV biweekly) with cilengitide (45 mg/kg IP, QD)."}, "[2]": {"test_system": "T47D breast cancer cell line", "assay": "Sulforhodamine B viability assay and isobologram / combination index in T47D cells", "type": "cell-based", "settings": "Homo sapiens, read-out: Bortezomib (M), concentration resulting in 50% reduction in viability as single agent (IC50)", "experimental": "For assessment of combined BTZ and cilengitide toxicity, T47D cells were seeded at a density of 7500 cells/cm^2 in 96-well cell culture plates and incubated for 24 hours. Cilengitide was diluted to 20 μM in complete DMEM, then 3 serial tenfold dilutions of this were performed in complete DMEM (2 μM, 200 nM and 20 nM). Complete DMEM containing no cilengitide was provided for negative controls.\nThese dilutions (or DMSO for wells containing no BTZ) were added to aliquots of complete DMEM containing 0-20 μM cilengitide for a 1/150 dilution. Aliquots (0.1 mL) of each mixture were added to wells already containing 0.1 mL medium (in duplicate), resulting in a matrix of cilengitide (10 nM-10 μM) and/or BTZ (1 nM-10 μM) or neither agent (diluent only).\nOD570nm readings were divided by those resulting from negative control (diluent only) wells and expressed as a percentage. Three independent replicates of this experiment were carried out.\nThe isoboles were obtained similarly by extrapolation of points representing 50% reduction in viability from line graphs of % viability versus concentration of one agent at variable concentration with the other agent supplied at a fixed concentration. […]"}}, "data": [{"smiles": "CC(C)C[C@H](NC(=O)[C@H](Cc1ccccc1)NC(=O)c1cnccn1)B(O)O", "note": "[Bortezomib]", "values": [{"measurement": "Total RR %", "setting": "[1]; Day 12", "result": 80, "unit": "%"}, {"measurement": "Total RR %", "setting": "[1]; Day 15", "result": 80, "unit": "%"}, {"measurement": "IC50", "setting": "[2]", "result": "8.9e-08", "unit": "M"}]}]}
